Test results as given in US4866206A, “2-Halomethyl derivatives of 2-amino acids” (Merrell Dow France et Cie, priority 1988, dated 1989).

Amino acid sequences for entries named in this document (tags omitted). A change or cut given only in a name is not applied to a line headed by its entry.
UniProt P09057: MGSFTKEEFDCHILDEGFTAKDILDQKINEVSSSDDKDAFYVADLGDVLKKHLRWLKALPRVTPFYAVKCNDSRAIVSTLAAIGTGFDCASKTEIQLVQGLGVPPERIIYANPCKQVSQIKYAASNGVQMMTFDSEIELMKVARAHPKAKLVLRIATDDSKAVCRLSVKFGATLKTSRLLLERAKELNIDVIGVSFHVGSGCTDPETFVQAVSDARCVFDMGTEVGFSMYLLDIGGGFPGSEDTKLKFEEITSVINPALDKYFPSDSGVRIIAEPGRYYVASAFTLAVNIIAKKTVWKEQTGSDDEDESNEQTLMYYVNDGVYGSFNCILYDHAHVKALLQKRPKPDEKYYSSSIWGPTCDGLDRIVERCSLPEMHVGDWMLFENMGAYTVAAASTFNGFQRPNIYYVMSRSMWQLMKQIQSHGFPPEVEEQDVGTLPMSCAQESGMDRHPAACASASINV

Biological target: rat liver ornithine decarboxylase (Rattus norvegicus, UniProt P09057)
Assay: time-dependent inhibition of rat liver ODC (in vitro)
Format: biochemical
Conditions: concentration of compound which gives half-maximal rate of inhibition

Q: For NCCCCC(N)(CCl)C(=O)O (stereo not shown) [MCML, 2-chloromethyl-2,6-diaminohexanoic acid], which “K I” value is on record?
A: The value was “no apparent saturation”.
